Source: PubChem BioAssay (Broad Institute)
PDI inh – PDI (human) enzyme inhibition. actives 0.052% (n = 350,000). inhibition, % at 10 µM. P07237. PDI insulin aggregation turbidity, A650, 90 min;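 active = mean inhibition across replicates of 30% or more, whatever share of single replicates reach that level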
SIRT5 block – inhibitors of human sirtuin-5 desuccinylase; inhibition, % at 15 µM; Q9NXA8; actives 1.1% (n = 330,000); Purified SirT5, succinyl-peptide AMC, trypsin-coupled fluorescence; in the data active = inhibition above about 15%
FGF22 binding – shifts melting point of recombinant human FGF22; Q9HCT0; recombinant FGF22 thermal shift, SYPRO orange fluorescence; percent of sucrose octasulfate shift, DMSO zero; activity (Tm shift, normalised), % at 9.99 µM; actives 1.5% (n = 340,000); AID 651658;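 active = mean Tm shift, scaled 0 neutral to 100 positive control, at about 1.3% or above, every replicate too, limit read from the data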
ERp5 block – ERp5 (human) disulfide isomerase inhibition; ERp5 insulin aggregation, absorbance 650 nm, 90 min; actives 0.05% (n = 350,000); Q15084; AID 651711; inhibition, % at 9.99 µM;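 active = mean replicate inhibition above about 25%, with every replicate also reaching it, limit read from the data, passing the limit was not always enough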
UUG fidelity – modulators of start codon recognition fidelity in yeast; S. cerevisiae UUG-firefly luciferase reporter, luminescence/redox ratio; activity score, % at 18.7 µM; hit rate 0.13% among 350,000; AID 602363;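 active = replicate mean at a twofold rise or more, about +100% in these data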;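 note: firefly luciferase made from a UUG start codon reports start codon fidelity; reporter light over untreated wells divided by growth signal over untreated wells; some hits fall short of that in this replicate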
S100A4 inh HTS – blocks human S100A4 binding to myosin IIA peptide; actives 0.14% (n = 360,000); P26447; inhibition, % at 10.7 µM; AID 652163; S100A4/TAMRA-MyoIIA peptide fluorescence polarization;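 active = mean inhibition of at least 70% across replicates, with every replicate also reaching that level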
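Material: S100A4 monomer protein | Medium: HEPES pH 7.2 with CaCl2, KCl, NaCl, DTT, Triton | Reagent: Labelled myosin peptide probe, 5 nM | Doses: One dose per compound | Times: 5 min incubation before reading | Benchmarks: Neutral control DMSO, positive control TFP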
Numbers stand for hits; - = inactive; . = no result. The list is not random: actives were taken first. Their share in the collection is about 2.2%.

SMILES	PDI inh	SIRT5 block	FGF22 binding	ERp5 block	UUG fidelity	S100A4 inh HTS
Cc1ccc(C)c(OCC(=O)Nc2c(C)n(C)n(-c3ccccc3)c2=O)c1	-	-	-	-	-	-
Cc1c(NC(=O)COc2cccc(Cl)c2Cl)c(=O)n(-c2ccccc2)n1C	-	-	42.9	-	.	-
COc1ccccc1N1CCN(CC(=O)NC(=O)NCc2ccccc2)CC1	-	.	43.2	-	-	-
C[C@H](NC(=O)C[C@H]1C[C@@H]2c3cc(NC(=O)Cc4ccncc4)ccc3O[C@@H]2[C@H](CO)O1)c1ccccc1	.	-	-	-	.	-
COc1ccccc1N1CCN(C(=O)C(=O)N/N=C/c2cccc(O)c2)CC1	36.1	.	.	.	-	.
COc1ccccc1/C=N/NC(=O)C(=O)N1CCN(c2ccccc2OC)CC1	-	.	.	.	-	.
COc1ccccc1N1CCN(CC(=O)Nc2c(C)n(C)n(-c3ccccc3)c2=O)CC1	-	29.0	-	-	-	-
COc1ccccc1N1CCN(C(C)C(=O)N2CC(C)OC(C)C2)CC1 (stereo unspecified)	-	19.8	-	-	-	-
COc1ccccc1N1CCN(C(=O)CCC(=O)O)CC1	-	-	43.0	-	-	-
COc1ccccc1N1CCN(C(=O)CCc2ccccc2)CC1	-	-	-	-	-	-
Cc1noc(C)c1NC(=O)N(C)C[C@@H]1OCCCC[C@@H](C)Oc2ccc(NS(C)(=O)=O)cc2C(=O)N([C@@H](C)CO)C[C@H]1C	.	.	-	.	-	.
CCC1CCCCN1CCCNC(=O)Cn1cnc2sc(C)c(S(=O)(=O)N3CCC(C)CC3)c2c1=O (stereo unspecified)	-	17.4	-	-	-	-
C[C@H](CO)N1C[C@H](C)[C@H](CN(C)C(=O)c2ccncc2)OCCCC[C@H](C)Oc2ccc(NC(=O)CCCCCC(=O)Nc3ccccc3N)cc2C1=O	.	-	-	-	-	-
Cc1ccc(S(=O)(=O)Nc2ccc3c(c2)C(=O)N([C@@H](C)CO)C[C@@H](C)[C@H](CN(C)S(=O)(=O)c2ccc(F)cc2)OCCCC[C@H](C)O3)cc1	.	-	-	-	-	-
CC(=O)N(C)C[C@H]1Oc2ncc(C#CCC3CCCC3)cc2C(=O)N([C@H](C)CO)C[C@@H]1C	.	-	-	-	-	-
CC(=O)N(C)C[C@H]1Oc2ncc(C#CCC3CCCC3)cc2C(=O)N([C@@H](C)CO)C[C@H]1C	.	19.0	-	-	-	-
C[C@H](CO)N1C[C@H](C)[C@H](CN(C)C(=O)c2cnccn2)Oc2ncc(C#CCC3CCCC3)cc2C1=O	.	-	-	-	-	-
C[C@H]1CN([C@@H](C)CO)C(=O)c2cc(C#CCC3CCCC3)cnc2O[C@H]1CN(C)C(=O)c1cnccn1	.	23.6	-	-	-	-
COCCn1c(Cc2cccn2C)nnc1SCC(=O)NCc1ccc2c(c1)OCO2	-	-	43.7	-	.	-
Cc1nnc(SCC(=O)NCc2ccc3c(c2)OCO3)n1C	-	-	43.4	-	.	-
Cn1cccc1Cc1nnc(SCC(=O)Nc2ccc3c(c2)OCO3)n1CCc1ccccc1	.	.	-	-	-	-
C[C@H](CO)N1C[C@H](C)[C@@H](CN(C)S(=O)(=O)c2cccs2)Oc2ccc(NC(=O)NC3CCCCC3)cc2CC1=O	.	-	-	-	-	-
CCCCn1c(N)c(N(CCOC)C(=O)c2c(CC)noc2C)c(=O)[nH]c1=O	-	19.7	-	-	-	-
c1ccc(-c2csc(N3CCSCC3)n2)cc1	-	-	-	-	.	-
c1ccc(-c2csc(-n3cccn3)n2)cc1	-	-	43.5	-	.	-
SMILES	PDI inh	SIRT5 block	FGF22 binding	ERp5 block	UUG fidelity	S100A4 inh HTS
COc1ccc2[nH]cc(CCNC(=O)Cc3ccc(Br)cc3)c2c1	-	.	-	-	-	-
COc1ccc2[nH]cc(CCNC(=O)Cn3cc(C)c(=O)[nH]c3=O)c2c1	-	.	43.2	-	-	-
COc1ccc2c3c(n(C)c2c1)[C@@H](CO)N(C(C)=O)CC31CCN(C(=O)Nc2ccc(F)cc2)CC1	.	.	-	.	.	.
O=C(Nc1ccccc1F)N1C[C@@H]2[C@H](c3ccccc31)[C@@H](CO)N2C(=O)Cc1ccccc1	.	-	-	-	-	-
COC(=O)CNC(=O)COC(=O)/C=C/c1cccs1	-	-	-	-	-	-
O=C(/C=C/c1cccs1)NC(=S)NNC(=O)c1ccccc1O	-	-	-	-	.	-
COc1ccc(C(=O)NNC(=S)NC(=O)/C=C/c2cccs2)cc1	-	-	43.0	-	.	-
COc1ccc(CCNC(=O)COC(=O)/C=C/c2cccs2)cc1	-	-	42.9	-	.	-
Cc1ccccc1NC(=O)/C=C1\SC(=O)NC1=O	-	-	43.9	-	.	-
Cc1ccccc1NC(=O)/C=C/c1cccs1	-	-	43.1	-	.	-
COCCNC(=O)C[C@H]1C[C@H]2c3cc(NS(=O)(=O)c4ccccc4)ccc3O[C@H]2[C@@H](CO)O1	.	-	-	-	.	-
O=C(C[C@H]1CC[C@@H](NC(=O)C2CC2)[C@H](CO)O1)NCCCN1CCOCC1	.	-	-	-	-	-
CC(=O)c1ccccc1NC(=O)COC(=O)/C=C/c1cccs1	-	-	-	-	-	-
O=C(COC(=O)/C=C/c1cccs1)Nc1ccccc1Cl	-	-	43.2	-	.	-
C[C@@H]1CN([C@H](C)CO)C(=O)c2cc(C#CCN(C)C)cnc2O[C@@H]1CN(C)C(=O)NC1CCCCC1	.	-	-	-	-	-
Cc1ccc(S(=O)(=O)N(C)CCCC(=O)NC(C)(C)CO)cc1	-	27.0	-	-	-	-
Cc1ccc(S(=O)(=O)N(C)CCN(C)S(=O)(=O)c2ccc(C)cc2)cc1	-	.	43.2	-	.	-
Cc1ccc(S(=O)(=O)N(C)S(=O)(=O)c2ccc(C)cc2)cc1	-	.	-	-	-	-
COCC#Cc1cnc2c(c1)C(=O)N([C@H](C)CO)C[C@H](C)[C@H](CN(C)S(C)(=O)=O)O2	.	-	-	-	.	-
CC(C)C[C@H](NS(=O)(=O)c1ccc(F)cc1F)C(=O)N1CCC[C@H]1C(=O)NCc1ccccc1	.	23.5	-	-	.	-
O=C(NCc1ccccc1)[C@@H]1CCCN1C(=O)[C@@H](NS(=O)(=O)c1ccc(F)cc1F)c1ccccc1	.	-	-	-	.	-
CNC[C@H]1Oc2c(NC(=O)c3ccc(-c4nccs4)cc3)cccc2C(=O)N([C@H](C)CO)C[C@H]1C	.	28.1	-	-	-	-
C[C@@H]1CN([C@H](C)CO)C(=O)c2cccc(NC(=O)c3ccc(-c4nccs4)cc3)c2O[C@@H]1CN(C)Cc1ccc(Oc2ccccc2)cc1	.	20.6	-	-	-	-
C[C@@H]1CN([C@@H](C)CO)C(=O)c2cccc(NC(=O)c3ccc(-c4nccs4)cc3)c2O[C@H]1CN(C)Cc1ccc(Oc2ccccc2)cc1	.	-	-	-	-	-
